{"source": "PubChem BioAssay AID602332", "about": "(National Center for Advancing Translational Sciences (NCATS), 2012)", "note": "“And” between values parts separate entries of the source, which are not always exact repeats. Equal values may be shown once. The list shows a part of the results, in another mix than the full data. Some of these compounds have results that are not shown, active ones among them. The source made the active and inactive calls. Calls follow the shape of the dose curve; as a rule, active = well fitted activation curve with a large enough effect; inconclusive = small, poorly fitted or top-dose-only effect; inactive = no such curve, though single readings can be large or run the other way."}
{"assay": "qHTS for Inducers of the Endoplasmic Reticulum Stress Response (ERSR) in Human Glioma: qHTS; also: % of control where 0% means no effect; nearly all actives have a fitted effect of over 35% in size", "conditions": "U87-MG GRP78 promoter luciferase reporter, 16 h; active compounds read high"}
{"smiles": "O=C(NCC1(N2CCCCC2)CCCCC1)c1cc([N+](=O)[O-])ccc1Cl", "activation": "inactive: -5.76%"}
{"smiles": "CN1[C@@H]2CC[C@H]1CC(OC(=O)C(O)(c1ccccc1)c1ccccc1)C2", "note": "(some centres not stated)", "activation": "inactive: -6.27%"}
{"smiles": "CC(C)N1C(=O)CC2(CCN(CCOC(=O)C(O)(c3ccccc3)c3ccccc3)CC2)C1=O", "activation": "inactive: 3.26%"}
{"smiles": "COc1cc(SC)ccc1C(=O)NCC1(N(C)C)CCCCC1", "activation": "inactive: -2.63%"}
{"smiles": "CCN(CC)CC(C)C(C)OC(=O)C(O)(c1ccccc1)c1ccccc1", "note": "(configuration not stated)", "activation": "inactive: -2.33%"}
{"smiles": "CN(C)C1(CNC(=O)c2cccc(Cl)c2)CCCCC1", "activation": "inactive: -3%"}
{"smiles": "CN(C)C1(CNC(=O)c2ccccc2F)CCCCC1", "activation": "inactive: 4.02%"}
{"smiles": "Cc1ccc(C(=O)NCC2(N3CCCCC3)CCCCC2)cc1", "activation": "inactive: -2.4%"}
{"smiles": "CN(C)c1ccc(C(=O)NCC2(N(C)C)CCCCC2)cc1", "activation": "inactive: -1.27%"}
{"smiles": "CN(C)C1CCCC1OC(=O)C(O)(c1ccccc1)c1ccccc1", "note": "(configuration not stated)", "activation": "inactive: -2.52%"}
{"smiles": "Cc1ccccc1C(=O)NCC1(N2CCCCC2)CCCCC1", "activation": "inactive: -5.75%"}
{"smiles": "CN(C)C1(CNC(=O)c2ccccc2[N+](=O)[O-])CCCCC1", "activation": "inactive: -2.3%"}
{"smiles": "CN1CCCC(OC(=O)C(O)(c2ccccc2)c2ccccc2)C1", "note": "(configuration not stated)", "activation": "inactive: -3.77%"}
{"smiles": "CCCCOc1ccccc1C(=O)NCC1(N(C)C)CCCCC1", "activation": "inactive: -4.7%"}
{"smiles": "O=C(NCC1(N2CCCCC2)CCCCC1)c1cc(F)c(F)cc1Cl", "activation": "inactive: -3%"}
{"smiles": "C=CCN1CCN(CCOC(=O)C(O)(c2ccccc2)c2ccccc2)CC1", "activation": "inactive: -4.32%"}
{"smiles": "O=C(NCC1(N2CCCCC2)CCCCC1)c1cccc(Br)c1", "activation": "inactive: 0.385%"}
{"smiles": "CCN1CCCC(OC(=O)C2(O)c3ccccc3C=Cc3ccccc32)C1", "note": "(configuration not stated)", "activation": "inactive: -2.18%"}
{"smiles": "Cc1cc(C(=O)NCC2(N3CCCCC3)CCCCC2)ccc1[N+](=O)[O-]", "activation": "inactive: -3.17%"}
{"smiles": "CCOc1cccc(C(=O)NCC2(N(C)C)CCCCC2)c1", "activation": "inactive: -2.8%"}
{"smiles": "COc1ccc(C(=O)NCC2(N(C)C)CCCCC2)cc1", "activation": "inactive: 1.23%"}
{"smiles": "O=C(CBr)c1ccc(Cl)cc1", "activation": "inactive: 3.7%"}
{"smiles": "COc1cc(C(=O)NCC2(N(C)C)CCCCC2)c([N+](=O)[O-])cc1OC", "activation": "inactive: -4.72%"}
{"smiles": "COc1ccc(C(=O)NCC2(N(C)C)CCCCC2)cc1Cl", "activation": "inactive: -3.78%"}
{"smiles": "COc1ccc(Cl)cc1C(=O)NCC1(N(C)C)CCCCC1", "activation": "inactive: -5.04%"}
{"smiles": "COc1cccc(C(=O)NCC2(N3CCCCC3)CCCCC2)c1", "activation": "inactive: -8.23%"}
{"smiles": "O=C(NCC1(N2CCCCC2)CCCCC1)c1cccc(Cl)c1", "activation": "inactive: -6.18%"}
{"smiles": "O=C(OC1CN2CCC1CC2)C(CO)(c1ccccc1)c1ccccc1", "note": "(configuration not stated)", "activation": "inactive: -2.19%"}
{"smiles": "COc1cccc(C(=O)NCC2(N3CCOCC3)CCCCC2)c1", "activation": "inactive: -1.73%"}
{"smiles": "CC(C)COc1ccc(C(=O)NCC2(N(C)C)CCCCC2)cc1", "activation": "inactive: -3.61%"}
{"smiles": "COc1ccc(Br)c(C(=O)NCC2(N3CCCCC3)CCCCC2)c1", "activation": "inactive: -3.51%"}
{"smiles": "Cc1cccc(C(=O)NCC2(N(C)C)CCCCC2)c1", "activation": "inactive: -3.99%"}
{"smiles": "COc1cc(C(=O)NCC2(N(C)C)CCCCC2)cc(OC)c1OC", "activation": "inactive: -1.87%"}
{"smiles": "C=C(C)C#CC(O)(C(=O)OC1CCN(C)CC1)c1ccccc1", "note": "(configuration not stated)", "activation": "inactive: -3.78%"}
{"smiles": "CN(C)c1cccc(C(=O)NCC2(N(C)C)CCCCC2)c1", "activation": "inactive: -5.85%"}
{"smiles": "O=C(OCCN1CCCC1)C(O)(c1ccccc1)c1ccccc1", "activation": "inactive: -4.14%"}
{"smiles": "CC(C)Oc1ccc(C(=O)NCC2(N(C)C)CCCCC2)cc1", "activation": "inactive: -3.75% and inactive: -4.28%"}
